Measured values: US10815276B2, “Cell penetrating peptides and methods of making and using thereof” (Entrada Therapeutics, Inc., priority 2014, dated 2020)

Biological target: T1, PTP1B (Homo sapiens, UniProt P18031)
T1 construct: The gene coding for the catalytic domain of PTP1B (amino acids 1-321) was amplified; made in house; host or cells: prokaryotic vector pET-22b(+)-ybbR
T1 sequence (P18031 1-321): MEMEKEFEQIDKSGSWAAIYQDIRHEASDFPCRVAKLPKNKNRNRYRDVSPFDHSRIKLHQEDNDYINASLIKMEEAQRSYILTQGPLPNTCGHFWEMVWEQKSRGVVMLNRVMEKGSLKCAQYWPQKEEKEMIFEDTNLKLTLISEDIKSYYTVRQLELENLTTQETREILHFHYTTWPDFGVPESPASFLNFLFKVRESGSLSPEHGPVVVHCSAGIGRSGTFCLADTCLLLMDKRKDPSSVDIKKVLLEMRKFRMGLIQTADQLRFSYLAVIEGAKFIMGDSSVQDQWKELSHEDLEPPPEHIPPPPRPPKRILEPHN
Experiment: PTP inhibition assay (pNPP)
Format: biochemical
Conditions: monocyclic peptide inhibitors
Method: PTP assays were performed in a quartz microcuvette (total volume 150 μL). The reaction mixture contains 100 mM Tris-HCl, pH 7.4, 50 mM NaCl, 2 mM EDTA, 1 mM TCEP, 0-1 μM of PTP inhibitor, and 500 μM para-nitrophenyl phosphate (pNPP). The enzymatic reaction was initiated by the addition of PTP (final concentration 15-75 nM) and monitored continuously at 405 nm on a UV-VIS spectrophotometer. Initial rates were calculated from the reaction progress curves (typically <60 s). The half-maximal inhibition constant (IC50) was defined as the concentration of an inhibitor that reduced the enzyme activity to 50% and was obtained by plotting the rates (V) against the inhibitor concentration [I] and fitting the data against the equation
[formula] where V0 is the enzymatic reaction rate in the absence of inhibitor. […] The reaction rate (V) was plotted against the pNPP concentration ([S]) and fitted against the equation
[formula] to obtain the Michaelis constant K. The Ki value was obtained by plotting the K values against the inhibitor concentration [I] and fitted to equation
[formula] where K0 is the Michaelis constant in the absence of inhibitor ([I]=0).

## cyclo(Ile-Pro-Phg-F2Pmp-Nle-Arg-Arg-Arg-Arg-Nal-Phe-Gln) [Monocyclic Inhibitor 3]
  IC50: ~200 nM
